Experimental data as given in BindingDB's records for PubMed 7815359 (University of Pennsylvania, 1995).

Protein sequences, listed by entry. Tags and fused reporters are not part of them.
UniProt P35372, whole entry: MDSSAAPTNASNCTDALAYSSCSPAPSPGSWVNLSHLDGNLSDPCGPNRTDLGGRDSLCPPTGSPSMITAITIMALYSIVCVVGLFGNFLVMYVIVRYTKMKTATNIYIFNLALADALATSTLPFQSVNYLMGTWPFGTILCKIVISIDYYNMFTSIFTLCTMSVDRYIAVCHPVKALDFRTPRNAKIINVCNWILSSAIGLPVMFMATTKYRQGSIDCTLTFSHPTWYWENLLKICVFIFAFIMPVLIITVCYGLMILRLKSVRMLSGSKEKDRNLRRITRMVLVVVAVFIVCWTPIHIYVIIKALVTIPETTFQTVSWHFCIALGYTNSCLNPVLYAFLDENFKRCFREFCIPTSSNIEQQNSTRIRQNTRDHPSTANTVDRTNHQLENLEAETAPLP

Target: Mu-type opioid receptor (Homo sapiens, UniProt P35372)

CN1CCC23CCCCC2C1Cc1ccc(O)cc13 (stereo unspecified) [17-methyl-17-azatetracyclo[7.5.3.0^{1,10}.0^{2,7}]heptadeca-2(7),3,5-trien-4-ol]
Ki: 1000 nM
